This assay can be described thus: nonspecific BLA reporter activation – CHO NFAT-bla cells, FRET readout, counter-screen for GALR2 agonist project, confirmation (AID 865).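 Also: 0% = DMSO with PBS wells and 100% = thapsigargin positive control wells.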 Conditions: beta-lactamase FRET activation, at 5.6 µM, stronger effect = higher value.

The list shows a part of the results, in another mix than the full data. Calls of active or inactive are those of the source.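 The calls were made as follows: active = activation above the screen-wide mean activation plus 3 SD (cut at about 8% in these data); inactive = the rest.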

For `CCC(C)N(CC(C)C)C(=S)SC(NC(C)=O)C(Cl)(Cl)Cl` (stereo unspecified), the activation is inactive: -2.09%.

For the origin of these results see PubChem BioAssay AID865 (The Scripps Research Institute Molecular Screening Center, 2007).
